The target of this test is T1, mu opiate receptor (MOR) (Rattus norvegicus, UniProt P33535).
T1 construct: from tissue; host or cells: striatal membrane preparation (rat striatum)
Put plainly: MOR agonist activity, [35S]GTPγS binding assay using striatal membranes. Type of test: biochemical. The arrangement: reference not given here. As to the method:
To assess the mu opiate receptor (MOR) agonist activity of positive compounds from the FLNA screening, compounds were tested in a [^35S]GTPγS binding assay using striatal membranes. Our previous study has shown that in striatal membranes, activation of MOR leads to an increase in [^35S]GTPγS binding to Gαo (Wang et al., 2005 Neuroscience 135:247-261).
Striatal tissue was homogenized in 10 volumes of ice cold 25 mM HEPES buffer, pH 7.4, which contained 1 mM EGTA, 100 mM sucrose, 50 μg/ml leupeptin, 0.04 mM PMSF, 2 μg/ml soybean trypsin inhibitor and 0.2% 2-mercaptoethanol. The homogenates were centrifuged at 800×g for 5 minutes and the supernatants were centrifuged at 49,000×g for 20 minutes.
The resultant striatal membrane preparation (200 μg) was admixed and maintained (incubated) at 30° C. for 5 minutes in reaction buffer as above that additionally contained 1 mM MgCl2 and 0.5 nM [^35S]GTPγS (0.1 μCi/assay, PerkinElmer Life and Analytical Sciences) in a total volume of 250 μl and continued for 5 minutes in the absence or presence of 0.1-10 μM of an assayed compound of interest. The reaction was terminated by dilution with 750 μl of ice-cold reaction buffer that contained 20 mM MgCl2 and 1 mM EGTA and immediate centrifugation at 16,000×g for 5 minutes.
The resulting pellet was solubilized by sonicating for 10 seconds in 0.5 ml of immunoprecipitation buffer containing 0.5% digitonin, 0.2% sodium cholate and 0.5% NP-40. Normal rabbit serum (1 μl) was added to 1 ml of lysate and incubated at 25° C. for 30 minutes. Nonspecific immune complexes were removed by incubation with 25 μl of protein A/G-conjugated agarose beads at 25° C. for 30 minutes followed by centrifugation at 5,000×g at 4° C. for 5 minutes. […]
The immunocomplexes so formed were collected by incubation at 25° C. for 30 minutes with 40 μl of agarose-conjugated protein A/G beads and centrifugation at 5,000×g at 4° C. for 5 minutes. […] The radioactivity in the suspension was determined by liquid scintillation spectrometry. […]

Amino acid sequences for entries named in this document (tags omitted).
UniProt P33535, whole entry: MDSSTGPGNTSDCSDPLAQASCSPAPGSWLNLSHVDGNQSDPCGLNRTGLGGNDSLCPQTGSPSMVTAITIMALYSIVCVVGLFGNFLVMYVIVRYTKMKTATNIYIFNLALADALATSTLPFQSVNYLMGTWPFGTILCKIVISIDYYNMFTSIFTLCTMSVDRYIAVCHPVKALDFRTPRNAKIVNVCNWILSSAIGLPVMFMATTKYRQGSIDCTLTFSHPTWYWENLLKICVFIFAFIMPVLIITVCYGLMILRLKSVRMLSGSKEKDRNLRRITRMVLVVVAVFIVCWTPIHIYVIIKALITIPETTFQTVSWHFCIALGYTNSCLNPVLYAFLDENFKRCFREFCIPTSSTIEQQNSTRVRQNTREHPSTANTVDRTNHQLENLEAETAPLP

Consider `O=S(=O)(c1ccc(F)cc1)N1CCOC12CCN(CC1CC1)CC2` [F-C0134], for which the “MOR agonist activity, [35S]GTPγS binding to Gαo” value worked out at 290.6% (0.1 μM compound, striatal membranes); 66.6% (1 μM compound + BFNA (1 μM β-funaltrexamine)); 378.9% (1 μM compound, striatal membranes).
